Experimental data from patent US9809545B2, “Factor XIa inhibitors” (Merck Sharp & Dohme Corp., priority 2013, dated 2017).

Protein sequences, listed by entry. Tags and fused reporters are not part of them. Residues count along the entry.
UniProt P03951, 388-625 limits assumed: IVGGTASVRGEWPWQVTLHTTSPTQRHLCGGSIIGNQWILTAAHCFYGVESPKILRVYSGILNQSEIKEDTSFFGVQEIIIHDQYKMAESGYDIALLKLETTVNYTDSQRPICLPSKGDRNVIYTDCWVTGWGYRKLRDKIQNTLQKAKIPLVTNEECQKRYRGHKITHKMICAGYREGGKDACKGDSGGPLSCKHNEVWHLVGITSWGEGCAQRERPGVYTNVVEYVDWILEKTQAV
UniProt P03951, 19-387 partner limits assumed: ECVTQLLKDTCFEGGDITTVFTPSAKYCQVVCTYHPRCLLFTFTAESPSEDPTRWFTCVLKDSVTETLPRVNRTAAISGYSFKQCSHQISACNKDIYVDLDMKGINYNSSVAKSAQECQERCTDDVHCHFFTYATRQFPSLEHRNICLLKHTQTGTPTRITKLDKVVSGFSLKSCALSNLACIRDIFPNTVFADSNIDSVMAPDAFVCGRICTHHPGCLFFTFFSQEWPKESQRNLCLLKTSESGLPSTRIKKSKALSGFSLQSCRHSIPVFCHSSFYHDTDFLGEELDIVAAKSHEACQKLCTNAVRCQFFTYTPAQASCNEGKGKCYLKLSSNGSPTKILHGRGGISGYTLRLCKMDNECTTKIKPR

Molecular target: purified human Factor XIa (Homo sapiens (Human), UniProt P03951)
Assay: Factor XIa Assay
Type: biochemical
Conditions: read-out: hFXIa Ki; purified human Factor XIa 40 pM; substrate Z-Gly-Pro-Arg-AFC 100 μM; 50 mM HEPES pH 7.4

Ki: < 5 nM
Compound: O=C(Nc1ccc2[nH]c(C(F)(F)F)nc2c1)C(Cc1ccccc1)n1ccc(-c2cc(Cl)ccc2-n2cnnn2)cc1=O (stereo not shown)
